Here are results for 24 compounds from PubChem BioAssay AID488847 (NMMLSC, 2010).

The chains behind the UniProt entries cited, without tags or fusion partners.
UniProt P25098, whole entry: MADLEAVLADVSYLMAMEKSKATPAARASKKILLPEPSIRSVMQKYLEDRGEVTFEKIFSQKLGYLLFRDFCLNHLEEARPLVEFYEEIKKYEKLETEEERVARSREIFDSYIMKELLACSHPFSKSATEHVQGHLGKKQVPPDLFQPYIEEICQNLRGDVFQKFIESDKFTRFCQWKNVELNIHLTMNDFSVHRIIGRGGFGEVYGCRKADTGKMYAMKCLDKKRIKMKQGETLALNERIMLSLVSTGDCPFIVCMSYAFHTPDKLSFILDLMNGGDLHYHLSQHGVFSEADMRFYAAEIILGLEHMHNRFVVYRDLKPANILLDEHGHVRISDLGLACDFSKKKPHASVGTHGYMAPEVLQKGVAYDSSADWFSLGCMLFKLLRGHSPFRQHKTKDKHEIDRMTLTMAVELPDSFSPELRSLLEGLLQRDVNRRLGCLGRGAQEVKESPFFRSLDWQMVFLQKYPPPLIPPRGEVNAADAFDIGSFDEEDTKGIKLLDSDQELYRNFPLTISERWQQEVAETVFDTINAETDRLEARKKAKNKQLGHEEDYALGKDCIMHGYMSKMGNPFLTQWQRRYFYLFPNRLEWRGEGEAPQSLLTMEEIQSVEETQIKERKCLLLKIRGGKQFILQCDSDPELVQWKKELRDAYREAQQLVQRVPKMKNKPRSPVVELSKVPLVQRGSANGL

Each structure is given as a SMILES string. The entries are a selection whose mix differs from that of the whole data set. Some of these compounds have results that are not shown, active ones among them. Active and inactive are the calls of the source.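 Rule for the calls: active = inhibition of aptamer binding above 40%, roughly 3 SD of noise, on plates passing a quality check; inactive = the rest.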

The target of the test is Beta-adrenergic receptor kinase 1 (Homo sapiens) (UniProt P25098). Kind of test: compounds blocking aptamer binding on GRK2 – biochemical, human GRK2, bead flow cytometry, HTS, primary screen (AID 488847).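 Note: median bead fluorescence of bound FAM aptamer so fluorescent compounds give negative values.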 The note with it: FAM-aptamer displacement from GRK2, at 10 µM, hits give high values. (In general: Flow cytometry measures light scatter and fluorescence of single cells or particles in a stream.)
Regarding `CC(C)N1C(=O)CC2(CCN(CCOC(=O)C(O)(c3ccccc3)c3ccccc3)CC2)C1=O`, the inhibition of aptamer binding is inactive: 2%.

Take `COc1cc(SC)ccc1C(=O)NCC1(N(C)C)CCCCC1`: the inhibition of aptamer binding is inactive: 0%.

For the compound `CCN(CC)CC(C)C(C)OC(=O)C(O)(c1ccccc1)c1ccccc1` (centres undefined), the inhibition of aptamer binding was inactive: 0%.

Regarding `Cc1ccc(C(=O)NCC2(N3CCCCC3)CCCCC2)cc1`, the inhibition of aptamer binding is inactive: 0%.

For the compound `O=C(NCC1(N2CCCCC2)CCCCC1)c1cc([N+](=O)[O-])ccc1Cl`, the inhibition of aptamer binding was inactive: 0%.

Consider `CN1[C@@H]2CC[C@H]1CC(OC(=O)C(O)(c1ccccc1)c1ccccc1)C2` (some centres undefined), for which the inhibition of aptamer binding was inactive: 0%.

Regarding `O=C(NCC1(N2CCCCC2)CCCCC1)c1cc(F)c(F)cc1Cl`, the inhibition of aptamer binding was inactive: 0%.

`C=CCN1CCN(CCOC(=O)C(O)(c2ccccc2)c2ccccc2)CC1`: the inhibition of aptamer binding was inactive: 0%.

As to `O=C(NCC1(N2CCCCC2)CCCCC1)c1cccc(Br)c1`, the inhibition of aptamer binding was inactive: 5%.

Consider `CCN1CCCC(OC(=O)C2(O)c3ccccc3C=Cc3ccccc32)C1` (centres undefined), for which the inhibition of aptamer binding was inactive: 0%.

Regarding `Cc1cc(C(=O)NCC2(N3CCCCC3)CCCCC2)ccc1[N+](=O)[O-]`, the inhibition of aptamer binding is inactive: 0%.

As to `COc1ccc(C(=O)NCC2(N(C)C)CCCCC2)cc1`, the inhibition of aptamer binding was inactive: 0%.

Regarding `CN(C)c1ccc(C(=O)NCC2(N(C)C)CCCCC2)cc1`, the inhibition of aptamer binding was inactive: 0%.

Consider `CN(C)C1CCCC1OC(=O)C(O)(c1ccccc1)c1ccccc1` (centres undefined), for which the inhibition of aptamer binding is inactive: 0%.

With `Cc1ccccc1C(=O)NCC1(N2CCCCC2)CCCCC1`, the inhibition of aptamer binding was inactive: 0%.

`COc1ccc(Cl)cc1C(=O)NCC1(N(C)C)CCCCC1`: the inhibition of aptamer binding was inactive: 0%.

Consider `COc1cccc(C(=O)NCC2(N3CCCCC3)CCCCC2)c1`, for which the inhibition of aptamer binding is inactive: 2%.

In the case of `O=C(NCC1(N2CCCCC2)CCCCC1)c1cccc(Cl)c1`, the inhibition of aptamer binding is inactive: 0%.

For the compound `CN(C)C1(CNC(=O)c2ccc(Br)cc2)CCCCC1`, the inhibition of aptamer binding is inactive: 0%.

In the case of `COc1cc(C(=O)NCC2(N(C)C)CCCCC2)c([N+](=O)[O-])cc1OC`, the inhibition of aptamer binding is inactive: 0%.

Regarding `COc1ccc(Br)c(C(=O)NCC2(N3CCCCC3)CCCCC2)c1`, the inhibition of aptamer binding was inactive: 0%.

Turning to `CN(C)c1cccc(C(=O)NCC2(N(C)C)CCCCC2)c1`, the inhibition of aptamer binding was inactive: 1%.

`CC(C)Oc1ccc(C(=O)NCC2(N(C)C)CCCCC2)cc1`: the inhibition of aptamer binding was inactive: 1%.

In the case of `O=C(OC1CN2CCC1CC2)C(CO)(c1ccccc1)c1ccccc1` (centres undefined), the inhibition of aptamer binding is inactive: 0%.
